This is an account of results in PMC5524405 (PLoS ONE, 2017).

The chains behind the UniProt entries cited, without tags or fusion partners. Residues count along the entry.
UniProt P06239, whole entry, species assumed: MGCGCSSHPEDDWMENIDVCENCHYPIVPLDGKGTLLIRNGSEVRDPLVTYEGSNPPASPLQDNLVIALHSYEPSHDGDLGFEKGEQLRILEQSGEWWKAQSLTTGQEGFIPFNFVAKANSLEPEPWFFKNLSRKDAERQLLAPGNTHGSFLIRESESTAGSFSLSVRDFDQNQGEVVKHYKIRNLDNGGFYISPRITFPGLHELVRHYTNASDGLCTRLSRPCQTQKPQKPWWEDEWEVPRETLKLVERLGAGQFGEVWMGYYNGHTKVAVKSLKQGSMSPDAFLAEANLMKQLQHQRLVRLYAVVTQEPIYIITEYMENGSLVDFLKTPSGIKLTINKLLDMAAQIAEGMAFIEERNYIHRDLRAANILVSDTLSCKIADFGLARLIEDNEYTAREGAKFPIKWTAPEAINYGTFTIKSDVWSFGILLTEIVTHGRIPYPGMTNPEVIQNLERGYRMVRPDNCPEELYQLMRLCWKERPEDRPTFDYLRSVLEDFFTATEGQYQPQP
UniProt P51451, whole entry, species assumed: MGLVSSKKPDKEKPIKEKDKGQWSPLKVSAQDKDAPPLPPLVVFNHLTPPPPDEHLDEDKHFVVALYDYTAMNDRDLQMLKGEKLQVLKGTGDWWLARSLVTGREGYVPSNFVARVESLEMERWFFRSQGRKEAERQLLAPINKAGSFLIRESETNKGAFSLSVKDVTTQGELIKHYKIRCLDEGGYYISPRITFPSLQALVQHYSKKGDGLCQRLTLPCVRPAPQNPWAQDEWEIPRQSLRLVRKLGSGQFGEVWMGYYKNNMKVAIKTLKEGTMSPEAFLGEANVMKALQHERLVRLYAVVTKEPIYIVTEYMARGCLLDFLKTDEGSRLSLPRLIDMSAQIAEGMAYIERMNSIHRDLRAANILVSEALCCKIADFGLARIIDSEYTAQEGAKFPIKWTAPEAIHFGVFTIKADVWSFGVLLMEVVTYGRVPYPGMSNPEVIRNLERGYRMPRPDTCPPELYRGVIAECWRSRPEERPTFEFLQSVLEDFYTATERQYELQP
UniProt P08069, 31-1367, species assumed: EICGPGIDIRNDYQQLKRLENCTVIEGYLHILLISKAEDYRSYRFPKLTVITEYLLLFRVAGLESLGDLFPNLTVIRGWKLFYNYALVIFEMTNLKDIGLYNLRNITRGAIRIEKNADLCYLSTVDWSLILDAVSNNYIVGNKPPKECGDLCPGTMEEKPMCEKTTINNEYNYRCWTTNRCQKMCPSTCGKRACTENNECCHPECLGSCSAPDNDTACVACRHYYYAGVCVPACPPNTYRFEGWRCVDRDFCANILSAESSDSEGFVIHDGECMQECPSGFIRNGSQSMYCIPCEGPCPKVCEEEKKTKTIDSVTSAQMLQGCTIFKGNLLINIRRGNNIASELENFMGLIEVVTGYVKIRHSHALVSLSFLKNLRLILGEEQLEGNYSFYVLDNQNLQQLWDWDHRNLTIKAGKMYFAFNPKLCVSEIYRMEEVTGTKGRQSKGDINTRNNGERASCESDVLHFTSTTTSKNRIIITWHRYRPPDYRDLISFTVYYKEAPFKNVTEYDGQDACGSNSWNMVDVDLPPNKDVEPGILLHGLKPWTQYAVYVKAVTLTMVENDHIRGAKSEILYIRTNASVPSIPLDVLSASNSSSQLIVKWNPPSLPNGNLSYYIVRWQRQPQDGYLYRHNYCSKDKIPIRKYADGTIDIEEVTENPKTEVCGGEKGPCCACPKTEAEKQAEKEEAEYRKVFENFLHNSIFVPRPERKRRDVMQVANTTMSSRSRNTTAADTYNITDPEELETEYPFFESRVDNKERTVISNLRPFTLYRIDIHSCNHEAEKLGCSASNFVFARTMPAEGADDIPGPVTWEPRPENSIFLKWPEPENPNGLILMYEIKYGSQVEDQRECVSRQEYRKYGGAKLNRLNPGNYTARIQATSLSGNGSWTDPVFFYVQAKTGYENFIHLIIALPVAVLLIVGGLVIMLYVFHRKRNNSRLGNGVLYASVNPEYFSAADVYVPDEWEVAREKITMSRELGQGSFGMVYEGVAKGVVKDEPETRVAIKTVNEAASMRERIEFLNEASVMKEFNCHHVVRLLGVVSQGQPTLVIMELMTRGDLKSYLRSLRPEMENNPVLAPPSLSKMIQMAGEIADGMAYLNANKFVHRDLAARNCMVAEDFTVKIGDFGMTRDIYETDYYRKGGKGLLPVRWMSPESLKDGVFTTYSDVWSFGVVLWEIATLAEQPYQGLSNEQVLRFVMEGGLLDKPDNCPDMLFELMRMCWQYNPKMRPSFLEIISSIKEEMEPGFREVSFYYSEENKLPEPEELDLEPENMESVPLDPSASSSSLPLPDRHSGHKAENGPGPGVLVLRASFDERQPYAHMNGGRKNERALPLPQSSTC
UniProt P41240, whole entry, species assumed: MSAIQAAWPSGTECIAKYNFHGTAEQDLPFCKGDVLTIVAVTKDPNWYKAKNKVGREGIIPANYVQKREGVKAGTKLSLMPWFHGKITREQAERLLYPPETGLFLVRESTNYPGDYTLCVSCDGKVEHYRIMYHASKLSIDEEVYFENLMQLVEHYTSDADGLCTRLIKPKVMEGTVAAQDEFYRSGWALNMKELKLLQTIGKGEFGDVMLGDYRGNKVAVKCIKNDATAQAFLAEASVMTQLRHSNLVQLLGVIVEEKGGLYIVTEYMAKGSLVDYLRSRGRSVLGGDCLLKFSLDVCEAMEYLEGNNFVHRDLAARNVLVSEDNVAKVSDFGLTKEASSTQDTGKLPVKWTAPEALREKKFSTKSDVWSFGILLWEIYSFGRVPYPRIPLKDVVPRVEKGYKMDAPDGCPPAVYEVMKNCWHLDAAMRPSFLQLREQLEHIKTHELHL

“And” between values parts separate entries of the source, which are not always exact repeats. Identical values can stand only once.

The target in assay [1] is T1, BMX (Homo sapiens, UniProt P51813).
T1 sequence (P51813 1-675): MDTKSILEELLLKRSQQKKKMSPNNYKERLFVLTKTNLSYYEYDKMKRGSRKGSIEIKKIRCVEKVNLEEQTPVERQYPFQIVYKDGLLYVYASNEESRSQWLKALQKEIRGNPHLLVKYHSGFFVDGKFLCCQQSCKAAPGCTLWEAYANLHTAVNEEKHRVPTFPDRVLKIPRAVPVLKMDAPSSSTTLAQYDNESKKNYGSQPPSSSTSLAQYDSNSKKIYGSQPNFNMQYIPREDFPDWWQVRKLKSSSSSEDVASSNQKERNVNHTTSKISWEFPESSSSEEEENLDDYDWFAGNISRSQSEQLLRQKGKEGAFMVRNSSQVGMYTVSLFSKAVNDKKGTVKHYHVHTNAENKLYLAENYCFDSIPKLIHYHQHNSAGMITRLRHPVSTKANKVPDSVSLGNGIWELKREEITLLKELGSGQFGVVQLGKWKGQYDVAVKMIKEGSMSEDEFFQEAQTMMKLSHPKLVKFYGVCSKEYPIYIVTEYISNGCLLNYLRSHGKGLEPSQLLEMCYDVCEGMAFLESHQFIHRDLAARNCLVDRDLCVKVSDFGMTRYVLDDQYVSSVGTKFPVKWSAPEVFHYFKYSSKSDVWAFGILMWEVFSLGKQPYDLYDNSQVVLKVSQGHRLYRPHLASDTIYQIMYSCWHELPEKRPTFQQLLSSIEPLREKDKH
Nature of the assay: BMX enzymatic assay.

The target of assay [2] is T2, Tec (Homo sapiens, UniProt P42680).
T2 sequence (P42680 1-631): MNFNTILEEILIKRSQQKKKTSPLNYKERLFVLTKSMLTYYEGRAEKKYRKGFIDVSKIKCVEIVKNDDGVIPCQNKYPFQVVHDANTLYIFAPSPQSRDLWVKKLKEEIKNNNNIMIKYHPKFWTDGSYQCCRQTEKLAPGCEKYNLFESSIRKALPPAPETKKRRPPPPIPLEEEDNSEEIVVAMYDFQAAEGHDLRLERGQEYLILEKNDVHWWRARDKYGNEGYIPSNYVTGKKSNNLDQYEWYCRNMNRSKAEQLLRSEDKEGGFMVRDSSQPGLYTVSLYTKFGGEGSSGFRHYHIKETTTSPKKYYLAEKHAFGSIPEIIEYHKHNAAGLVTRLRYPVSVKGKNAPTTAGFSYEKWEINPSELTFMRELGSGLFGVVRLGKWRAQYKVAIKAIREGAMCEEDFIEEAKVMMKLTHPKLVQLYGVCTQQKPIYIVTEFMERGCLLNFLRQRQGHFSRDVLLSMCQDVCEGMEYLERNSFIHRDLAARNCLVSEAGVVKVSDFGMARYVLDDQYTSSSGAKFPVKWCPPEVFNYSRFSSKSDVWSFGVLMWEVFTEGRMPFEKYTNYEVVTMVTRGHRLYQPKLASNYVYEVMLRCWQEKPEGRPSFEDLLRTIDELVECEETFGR
Nature of the assay: Tec kinase enzymatic assay. It is filed as biochemical.

The target of assay [3] is T3, ITK (Homo sapiens, UniProt Q08881).
T3 sequence (Q08881 1-620): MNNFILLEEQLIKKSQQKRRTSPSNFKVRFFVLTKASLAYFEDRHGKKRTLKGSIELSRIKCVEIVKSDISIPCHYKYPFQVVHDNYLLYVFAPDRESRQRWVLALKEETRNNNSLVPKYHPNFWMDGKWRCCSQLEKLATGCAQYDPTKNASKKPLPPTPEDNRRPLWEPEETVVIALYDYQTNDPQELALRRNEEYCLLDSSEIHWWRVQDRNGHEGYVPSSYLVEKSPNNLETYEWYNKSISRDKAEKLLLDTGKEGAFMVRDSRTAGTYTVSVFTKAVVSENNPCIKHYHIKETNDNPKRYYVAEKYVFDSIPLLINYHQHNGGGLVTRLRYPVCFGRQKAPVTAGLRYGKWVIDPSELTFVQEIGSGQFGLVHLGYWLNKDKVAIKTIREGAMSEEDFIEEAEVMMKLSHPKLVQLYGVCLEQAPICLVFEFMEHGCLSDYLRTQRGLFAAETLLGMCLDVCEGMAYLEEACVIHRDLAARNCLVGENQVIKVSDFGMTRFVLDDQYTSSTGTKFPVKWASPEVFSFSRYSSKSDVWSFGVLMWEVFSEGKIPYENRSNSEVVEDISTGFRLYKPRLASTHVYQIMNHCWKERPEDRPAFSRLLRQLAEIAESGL
Nature of the assay: ITK enzymatic assay. The class given is biochemical.

Assay [4] concerns the target Lck (Homo sapiens, UniProt P06239). Nature of the assay: Lck enzymatic assay.
Assay [5] concerns the target BLK (Homo sapiens, UniProt P51451). Put plainly: BLK enzymatic assay.
Assay [6] deals with FGR (Homo sapiens, UniProt P09769). Nature of the assay: FGR enzymatic assay. It is filed as biochemical. The source says: (§1) Similar assays were used for other kinases (Tec kinase, interleukin [IL]-2-inducible T-cell kinase, B-lymphocyte kinase, T cell-expressed kinase, and bone marrow-expressed kinase), with ATP concentrations equal to the apparent Michaelis constant (KM^app) for each kinase.

The target in assay [7] is IGF1R (Homo sapiens, UniProt P08069). Nature of the assay: IGF1R enzymatic assay. The class given is biochemical.
Excerpt: as §1

Assay [8] deals with T4, Txk (Homo sapiens, UniProt P42681).
T4 sequence (P42681 1-527): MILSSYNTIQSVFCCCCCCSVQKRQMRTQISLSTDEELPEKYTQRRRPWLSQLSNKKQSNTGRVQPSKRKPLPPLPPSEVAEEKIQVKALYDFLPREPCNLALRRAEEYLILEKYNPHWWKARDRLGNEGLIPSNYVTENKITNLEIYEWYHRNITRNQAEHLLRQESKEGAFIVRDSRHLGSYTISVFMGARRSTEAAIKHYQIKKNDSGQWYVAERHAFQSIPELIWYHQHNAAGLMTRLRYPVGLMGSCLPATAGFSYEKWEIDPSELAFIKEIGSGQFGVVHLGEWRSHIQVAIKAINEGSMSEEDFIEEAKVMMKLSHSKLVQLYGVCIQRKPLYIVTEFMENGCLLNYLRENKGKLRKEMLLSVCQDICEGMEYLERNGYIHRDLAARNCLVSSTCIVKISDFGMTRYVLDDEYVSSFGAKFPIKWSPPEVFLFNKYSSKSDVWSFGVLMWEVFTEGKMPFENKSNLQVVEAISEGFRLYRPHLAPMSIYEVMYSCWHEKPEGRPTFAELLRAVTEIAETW
Nature of the assay: Txk enzymatic assay. It is filed as biochemical.

Assay [9] deals with CSK (Homo sapiens, UniProt P41240). Put plainly: CSK enzymatic assay.

`Cc1c(-c2c(F)cc(C(N)=O)c3[nH]c4c(c23)CC[C@H](C(C)(C)O)C4)cccc1-n1c(=O)c2cccc(F)c2n(C)c1=O` [BMS-986142, 6-fluoro-5-(R)-(3-(S)-(8-fluoro-1-methyl-2,4-dioxo-1,2-dihydroquinazolin-3(4H)-yl)-2-methylphenyl)-2-(S)-(2-hydroxypropan-2-yl)-2,3,4,9-tetrahydro-1H-carbazole-8-carboxamide]: the “Fold selectivity for BTK, over BMX” value in [1] was 64×. In addition, in assay [2], the “Fold selectivity for BTK, over Tec” value was < 30 × and 20×. For the same molecule, in assay [3], the “Fold selectivity for BTK, over ITK” value is listed as 30×. The “Fold selectivity for BTK, over Lck” value in assay [4] was 142×. For the same molecule, in assay [5], the “Fold selectivity for BTK, over BLK” value was 46×. In addition, the “Fold selectivity for BTK, over FGR” value in assay [6] was found to be 162×. For the same molecule, the “Fold selectivity for BTK, over IGF1R” value in [7] was 494×. For the same molecule, in [8], the “Fold selectivity for BTK, over Txk” value is recorded as 56×. Besides, in assay [9], the “Fold selectivity for BTK, over CSK” value was 296×.
